Consider one compound from ChEMBL document CHEMBL4052607 (J Med Chem, 2017).

Sequences of proteins named here, by UniProt entry; tags and fusion partners are left off.
UniProt P35462, whole entry: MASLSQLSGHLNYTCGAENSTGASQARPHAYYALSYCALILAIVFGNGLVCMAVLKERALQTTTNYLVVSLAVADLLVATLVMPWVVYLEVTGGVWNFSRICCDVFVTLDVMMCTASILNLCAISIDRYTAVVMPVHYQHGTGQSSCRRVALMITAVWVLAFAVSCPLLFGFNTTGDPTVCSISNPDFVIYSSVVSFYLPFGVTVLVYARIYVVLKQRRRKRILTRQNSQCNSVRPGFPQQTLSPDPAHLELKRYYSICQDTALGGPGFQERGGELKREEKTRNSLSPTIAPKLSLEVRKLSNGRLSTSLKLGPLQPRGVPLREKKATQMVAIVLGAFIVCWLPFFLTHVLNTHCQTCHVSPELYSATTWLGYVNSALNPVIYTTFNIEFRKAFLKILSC

The target in this assay is D(3) dopamine receptor (Homo sapiens, UniProt P35462). The experiment in a line: Competitive antagonist activity at D3 receptor (unknown origin) expressed in CHOK1 cells assessed as induction of rightward shift in the dopamine dose response curve for beta-arrestin recruitment after 90 mins by DiscoveRx PathHunter assay. The class given is cell-based. The conditions noted are these: read-out: pA2 (converted).

As for `CCN1CCCC1CNC(=O)c1cc(S(N)(=O)=O)ccc1OC` (stereo unspecified) [SULPIRIDE], the Kb is 39.8 nM.
